Compounds with a hit are over-represented: about 13% of the library has one in this group of screens.
miR-21 reporter: miR-21 reporter, rising signal; Potency, µM (titrated, usually from 38.3 µM), without a hit: at the highest dose reporter change, positive = more light; AID 2288; 340,000 tested, under 10 active; HeLa miR-21 FLuc reporter, luciferase, 48 h; active = well fitted rising curve with a large enough effect; inconclusive = small, poorly fitted or top-dose-only effect; inactive = no such curve, though single readings can be large or run the other way;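 note: % of control where 0% means no effect; miR-21 action dims this reporter so a rising signal means less miR-21 action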
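Compounds were titrated across several concentrations (up to approximately 40 uM) and incubated 48 hours with HeLa miR-21-FLuc reporter cells (miR-21 target sequence downstream of FLuc, endogenous miR-21). Readout was firefly luciferase luminescence after lytic detection reagent.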
Sfp inh: blocks B. subtilis Sfp PPTase activity; Biochemical Sfp PPTase activity, qHTS; Q9F4F7; Potency, µM, for inactives: max response, negative = inhibition, most hits filed as inhibitors; hit rate 3.5% among 310,000; active = well fitted inhibition curve with a large enough effect; inconclusive = small, poorly fitted or top-dose-only effect, or another doubt; inactive = no such curve, though single readings can be large or run the other way;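 also: the enzyme is Sfp with the accession as filed and its product quenches rhodamine fluorescence; potency is read from the fitted curve at half-maximal effect; 0% = enzyme reaction without inhibitor and -100% = no enzyme wells; top concentration of the series not given in the record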
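Compounds were incubated with enzyme (final 15 nM) for 15 min at room temperature before substrate addition started the reaction. Fluorescence at 525 nm excitation, 598 nm emission was recorded immediately and after 30 minutes.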
KDM4E inh: JMJD2E (human) inhibition. B2RXH2. 230,000 compounds, 1.6% hits. Potency, µM (top dose mostly 57.1 µM), inactives show at the top dose activity change, negative = inhibition, usual class: inhibitors. JMJD2E catalytic domain, FDH-coupled NADH fluorescence (FDH is formaldehyde dehydrogenase). AID 2147; active = well fitted inhibition curve with a large enough effect, not every such curve was filed as active; inconclusive = small, poorly fitted or top-dose-only effect, or another doubt; inactive = no such curve, though single readings can be large or run the other way;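 note: potency is the fitted concentration of half-maximal effect; 0% = wells with enzyme and -100% = buffer wells without enzyme; nearly all actives have a fitted effect of over 50% in size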
ALDH1A1 inh: inhibitors of human aldehyde dehydrogenase 1A1; AID 1030; Potency, µM (top dose mostly 75.3 µM), for inactives: top-dose activity, negative = inhibition, usual class: inhibitors; 220,000 compounds, 7.3% hits; Purified ALDH1A1, NADH fluorescence, propionaldehyde substrate; active = well fitted inhibition curve with a large enough effect, not every such curve was filed as active; inconclusive = small, poorly fitted or top-dose-only effect, or another doubt; inactive = no such curve, though single readings can be large or run the other way;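 note: potency is the fitted concentration of half-maximal effect; plate controls were no enzyme wells and a reference inhibitor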
LMNA splice mod: LMNA splicing modulation; HeLa LMNA splicing GFP/RFP minigene ratio, 48 h; Potency, µM (highest dose often 46.1 µM), for inactives: top-dose ratio change, negative = inhibition, usual class: inhibitors; 200,000 compounds, 0.01% hits; AID 1487; active = well fitted inhibition curve with a large enough effect in the signal ratio, with a control signal flat, not every such curve was filed as active; inconclusive = small, poorly fitted or top-dose-only effect, or effect the other way, or a change in a side signal; the % refers to the signal ratio; note: potency is the fitted concentration of half-maximal effect; % is set by controls: 0 for no effect and ±100 for the full control effect
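Read-out is the ratio of GFP to DsRed2 object intensity, acquired by 488 nm laser-scanning cytometry on HeLa lamin A-EGFP minigene reporter cells. Compound incubation 48 hrs at 37 °C in Opti-MEM with 2% FBS; DMSO 0.5% final.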
G9a inh: blocks human histone lysine methyltransferase G9a. Q96KQ7. G9a H3K9 monomethylation, AlphaScreen, 2 h. Potency, µM (titrated, usually from 102 µM), without a hit: at the top dose activity, negative = inhibition, usual class: inhibitors. 350,000 compounds, 8.8% hits; note: potency is the fitted concentration of half-maximal effect; % is set by controls: 0 for no effect and ±100 for the full control effect; nearly all actives have a fitted effect of over 75% in size
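AlphaScreen read-out: biotin-H3K9 peptide (500 nM) methylation by 20 nM enzyme with 20 uM SAM, 2 h at room temperature after 15 min compound preincubation; anti-monomethyl H3K9 antibody plus donor/acceptor beads, 10 min dark.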
* hit, by the source's call; ? = inconclusive; / = no result; [ ] = another dose, or the depositor's remark. Unless noted, calls come from the whole dose curve; as a rule, active = well fitted curve in the direction sought with a large enough effect; inconclusive = small, poorly fitted or top-dose-only effect, or another doubt; inactive = no such curve, though single readings can be large; an effect the other way counts as inactive or inconclusive.

| miR-21 reporter | Sfp inh | KDM4E inh | ALDH1A1 inh | LMNA splice mod | G9a inh | structure |
| --- | --- | --- | --- | --- | --- | --- |
| -0.4% | 2.6% | / | / | / | -22.7% | O=c1[nH]cnc(O)c1C(c1ccc([N+](=O)[O-])cc1)c1c(O)nc[nH]c1=O |
| -1.8% | -9.8% | / | / | / | 70.8µM* | O=C(NCCc1cscn1)C1CCC(=O)N(Cc2ccc(Cl)cc2)C1 (stereo not drawn) |
| -0.5% | / | / | / | -8.2%[46 µM] | 2.5%[59 µM] | O=C(Nc1ccc(F)c(F)c1)c1cc(S(=O)(=O)NCc2ccc3c(c2)OCO3)ccc1F |
| 8.1% | -0.1% | ? | -19.5% | ? | 44.7% | CCc1ccc(-c2cc(C(=O)N/N=C/c3c[nH]c4ccccc34)[nH]n2)cc1 |
| -12.1% | 10.4% | -9.1% | 12.6µM* | ? | 3.2%[59 µM] | CCc1ccc2c(Cl)c(C(=O)N/N=C/c3c[nH]c4ccccc34)sc2c1 |
| 23.6% | 1.6% | 6.2% | / | / | 12.2% | O=C(Nc1csc([N+](=O)[O-])c1)Nc1ccccc1Cl |
| 0.4% | 50.1µM* | -15.6% | / | / | / | O=C(Nc1ccc(Cl)cc1)Nc1ccccc1Sc1ncc([N+](=O)[O-])s1 |
| -0.4% | 7.9% | -10.0% | 6.0% | ? | 44.7µM* | CCc1nnc(NC(=O)Cc2c[nH]c3ccccc23)s1 |
| -36.0% | 1.4% | 1.5% | 5.4% | 0.7% | / | Cc1csc(NC(=O)Cc2c[nH]c3ccccc23)n1 |
| -18.9% | -1.5% | -3.0% | 25.1µM* | 8.2% | -48.2% | Cc1cnc(NC(=O)Cc2c[nH]c3ccccc23)s1 |
| 1.7% | / | / | / | -8.0%[46 µM] | 7.9%[59 µM] | Cc1ccc(NC(=O)CN2C(=O)c3ccccc3Sc3ccc(C(=O)N4CCCC4)cc32)cc1 |
| -11.5% | 79.4µM* | ? | / | / | -136.4%[59 µM] | O=C(Nc1ccc2c(c1)nc1n2CCN(C2CCCCC2)C1)c1ccco1 |
| -24.2% | -4.8% | / | / | / | 31.6µM* | COc1ccccc1C(=O)Nc1ccc2c(c1)nc1n2CCN(C2CCCCC2)C1 |
| -22.5% | -10.7% | ? | ? | -12.4%[46 µM] | ? | CCC(=O)Nc1ccc2c(c1)nc1n2CCN(C2CCCCC2)C1 |
| -2.3% | 9.6% | / | / | / | 31.6µM* | CCC(=O)Nc1ccc2c(c1)nc1n2CCN(CCOC)C1 |
| -31.6% | 39.8µM* | ? | ? | 6.6% | ? | CN1C(=O)c2c(sc3c2CCCC3)NC1c1ccccc1O (stereo not drawn) |
| 3.2% | -22.0% | ? | ? | ? | ? | CN1CCc2c(sc3c2C(=O)NC(c2cn(Cc4ccccc4)c4ccccc24)N3)C1 (stereo not drawn) |
| -12.5% | / | / | / | / | -0.7%[59 µM] | Cc1cc(C)c2c(=O)cc(C(=O)Nc3ccc(S(=O)(=O)Nc4nc(C)cc(C)n4)cc3)oc2c1 |
| / | 6.2% | / | / | / | -10.6%[12.7 µM] | CO[C@H](C(=O)[C@@H](O)[C@@H](C)O)C1Cc2cc3cc(O[C@H]4C[C@@H](O[C@H]5C[C@@H](O)[C@H](O)[C@@H](C)O5)[C@@H](O)[C@@H](C)O4)c(C)c(O)c3c(O)c2C(=O)[C@H]1O[C@H]1C[C@@H](O[C@H]2C[C@@H](O[C@H]3C[C@](C)(O)[C@H](O)[C@@H](C)O3)[C@H](O)[C@@H](C)O2)[C@H](O)[C@@H](C)O1 (stereo partly drawn) |
| 0.4% | / | / | / | / | -8.7%[59 µM] | Cc1ccc2c(=O)cc(C(=O)Nc3c(C(=O)c4ccccc4)oc4ccccc34)oc2c1C |
| -0.3% | 5.6% | -7.2% | 11.2µM* | ? | -1.4%[59 µM] | CCOC(=O)c1cccc(-n2c(C)cc(C=O)c2C)c1 |
| 1.9% | 23.0% | -8.9% | ? | -25.4%[46 µM] | 11.0%[0.0925 µM] | COC(=O)c1cc(C(=O)OC)cc(-n2c(C)cc(C=O)c2C)c1 |
| -8.4% | 3.6% | -10.9% | 1.41µM* | -6.7%[46 µM] | ? | Cc1cc(C=O)c(C)n1-c1ccc2c(c1)OCO2 |
| 6.1% | 6.2% | 1.3% | 1.78µM* | 0.3% | -43.3%[59 µM] | COC(=O)c1ccc(C)c(-n2c(C)cc(C=O)c2C)c1 |
| -4.6% | -25.6% | ? | ? | 23.8% | 4.47µM* | Cc1ccc(C)n1-c1cccc(C(=O)O)c1 |

In the list so far, these have a thiophene ring, fused or not.
| miR-21 reporter | Sfp inh | KDM4E inh | ALDH1A1 inh | LMNA splice mod | G9a inh | structure |
| --- | --- | --- | --- | --- | --- | --- |
| -12.1% | 10.4% | -9.1% | 12.6µM* | ? | 3.2%[59 µM] | CCc1ccc2c(Cl)c(C(=O)N/N=C/c3c[nH]c4ccccc34)sc2c1 |
| 23.6% | 1.6% | 6.2% | / | / | 12.2% | O=C(Nc1csc([N+](=O)[O-])c1)Nc1ccccc1Cl |
| -31.6% | 39.8µM* | ? | ? | 6.6% | ? | CN1C(=O)c2c(sc3c2CCCC3)NC1c1ccccc1O (stereo not drawn) |
| 3.2% | -22.0% | ? | ? | ? | ? | CN1CCc2c(sc3c2C(=O)NC(c2cn(Cc4ccccc4)c4ccccc24)N3)C1 (stereo not drawn) |

Continued.
| miR-21 reporter | Sfp inh | KDM4E inh | ALDH1A1 inh | LMNA splice mod | G9a inh | structure |
| --- | --- | --- | --- | --- | --- | --- |
| -2.4% | 14.7% | -5.3% | 8.3% | 9.3%[46 µM] | ? | Cn1c(=O)[nH]c(Nc2ccccc2)c([N+](=O)[O-])c1=O |
| -34.9% | 13.6% | -28.3% | -6.9% | -14.2% | -6.0%[59 µM] | Cc1cc(/C=N/O)c(C)n1-c1ccccc1 |
| -6.1% | -15.1% | -2.6% | 14.1µM* | / | 44.7µM* | Cc1cc(/C=N/O)c(C)n1-c1cccc(Cl)c1 |
| -0.4% | 8.2% | 5.4% | -3.1% | ? | 39.8µM* | Cc1cc(C=O)c(C)n1-c1cccc(C(=O)O)c1 |
| 6.0% | -1.1% | -2.7% | 7.94µM* | 4.9% | -0.9%[59 µM] | COC(=O)c1cccc(-n2c(C)cc(C=O)c2C)c1 |
| -38.0% | -19.1% | -10.3% | 11.9% | 8.9% | 30.3% | CCOc1cc(/C=N/O)ccc1OCC(=O)Nc1cccc(C)c1 |
| 14.6% | ? | ? | ? | 12.0%[9.22 µM] | 50.1µM* | CCOc1cc(-c2nc(C)c(C(C)=O)n2O)ccc1OCC(=O)Nc1cccc(C)c1 |
| 0.1% | 13.4% | / | / | / | 7.9%[0.0925 µM] | COc1ccc(CCNC(=O)CCCN2C(=O)C(c3ccccc3)Oc3cccnc32)cc1OC (stereo not drawn) |
| -27.6% | 50.1µM* | -39.6% | ? | / | -0.9% | Cc1ccc(N/C=C/C(=O)c2cccs2)cc1C |
| -58.4% | 8.5% | -1.3% | ? | -9.9% | ? | CNc1cc([N+](=O)[O-])ccc1N/C=C/C(=O)c1cccs1 |
| -6.9% | 5.8% | -20.0% | ? | ? | 3.98µM* | O=C(/C=C/Nc1ccc(Nc2ccccc2)cc1)c1cccs1 |
| -33.4% | -16.5% | -5.5% | 14.1µM* | 16.0% | 39.8µM* | O=C(/C=C/Nc1cccc([N+](=O)[O-])c1)c1cccs1 |
| 2.5% | -2.3% | / | / | / | ? | CN(c1ccc(Br)cc1)S(=O)(=O)c1ccc2[nH]cc(C(=O)NCCN3CCOCC3)c(=O)c2c1 |
| 8.7% | -3.8% | 0.6% | 6.31µM* | -0.2% | -17.6%[0.501 µM] | O=C(COC(=O)C1CCN(S(=O)(=O)c2cc([N+](=O)[O-])ccc2Cl)CC1)Nc1ncc(Cl)cc1Cl |
| -1.3% | -1.0% | -15.0% | 25.1µM* | -0.9% | 30.9%[59 µM] | O=C(NCc1ccccc1)C1CCN(S(=O)(=O)c2cc([N+](=O)[O-])ccc2Cl)CC1 |
| 1.6% | 6.5% | -4.5% | 6.31µM* | -15.8% | ? | CN(Cc1ccccc1)C(=O)C1CCN(S(=O)(=O)c2cc([N+](=O)[O-])ccc2Cl)CC1 |
| 21.4% | ? | -16.0% | ? | ? | 22.4µM* | O=C(Nc1nc2ccc(F)cc2s1)C1CCN(S(=O)(=O)c2cc([N+](=O)[O-])ccc2Cl)CC1 |
| -4.2% | 17.5% | 9.8% | ? | -0.2% | -5.9%[59 µM] | CC(NC(=O)C1CCN(S(=O)(=O)c2cc([N+](=O)[O-])ccc2Cl)CC1)c1ccccc1 (stereo not drawn) |
| / | / | / | / | / | -10.6%[2.33 µM] | COC(=O)CCNC(=O)CCc1ccc(S(=O)(=O)N2CCCCCC2)cc1 |

Compound activity (PubChem BioAssay)
